# Results published in patent US20240316087A1, “Compositions And Methods For Inducing Apoptosis In Anaerobic Cells And Related Clinical Methods For Treating Cancer And Pathogenic Infections” (priority 2017, published 2024).
# System: Stage IV cancer
# Conditions: 675 Stage IV cancer patients; iv then oral Salicinium
# Experimental: A ten-year, multi-center cancer study was conducted wherein we recruited a total of 675 Stage IV cancer patients. These patients were treated and closely monitored through four participating medical and naturopathic clinics, with each clinic following standard therapeutic, monitoring and reporting protocols for each patient over a minimum study period of five years. The patients in these studies were all diagnosed by standard diagnostic methods (e.g., using tumor visualization, cytology, biopsy, blood assays for circulating tumor markers, etc.) at the start of the study as having Stage IV cancer, according to conventional diagnostic standards. Cancer types were grouped by primary cancer cytology/histochemistry, patient history and other standard criteria.
# Of the 675 enrolled patients, 128 patients entered the study with diagnosed Stage IV breast cancer, 91 with Stage IV colon/rectal cancer, 34 with Stage IV head/neck cancer, 86 with Stage IV lung cancer, 32 with Stage IV non-Hodgkin's lymphoma (NHL), 28 with Stage IV melanoma, 36 with Stage IV ovarian cancer, 37 with Stage IV pancreatic cancer, 76 with Stage IV prostate cancer, 18 with Stage IV renal cancer, 23 with Stage IV sarcoma, and 34 with Stage IV uterine cancer. […]
substance,measurement,value
4-(beta-D-allopyranosyloxy)-benzaldehyde [Salicinium],reported adverse side effects,few or no reported adverse side effects
